In PubChem BioAssay AID504444 (National Center for Advancing Translational Sciences (NCATS), 2011):
Only a part is listed here, and it is no random draw. Records with an inconclusive call do not appear. The source made the active and inactive calls. Calls come from the whole dose curve; as a rule, active = well fitted inhibition curve with a large enough effect; inconclusive = small, poorly fitted or top-dose-only effect, or effect the other way; inactive = flat fitted curve, though single readings scatter.
% is set by controls: 0 for no effect and ±100 for the full control effect.

Assay: Nrf2 qHTS screen for inhibitors; note: nearly all actives have a fitted effect of over 60% in size
Settings: A549 ARE-Fluc reporter, luciferase luminescence, 18-24 h; at 46 µM (top of the series)
For `CCC(=O)N(c1ccccc1)C1(COC)CCN(CCc2cccs2)CC1`, the activity change, negative = inhibition was inactive: -0.0499%.
With `CCC(=O)N(c1ccccc1)C1(COC)CCN(CCn2nnn(CC)c2=O)CC1` the activity change, negative = inhibition was inactive: 6.45%.
